# Yeast mating assay 1: variants of the scFv Ab-14

Data: MIT Lincoln Laboratory AlphaSeq set, Engelhart et al. 2022, doi:10.1038/s41597-022-01779-4, as distributed in FLAb.

The target is the same throughout: PDVDLGDISGINAS, from the HR2 region of SARS-CoV-2 spike.

Parent: Ab-14, a human scFv built as VH, three GGGGS repeats, VL. Only the CDRs of the heavy chain vary.
VH: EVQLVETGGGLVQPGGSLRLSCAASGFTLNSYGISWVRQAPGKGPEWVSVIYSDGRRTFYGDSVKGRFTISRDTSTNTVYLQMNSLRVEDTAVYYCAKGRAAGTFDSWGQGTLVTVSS
VL: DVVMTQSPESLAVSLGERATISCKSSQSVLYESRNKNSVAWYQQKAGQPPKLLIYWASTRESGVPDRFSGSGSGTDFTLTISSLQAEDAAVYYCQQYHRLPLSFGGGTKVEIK

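Phage display of a naive human antibody library on the peptide gave the parent. In library AAYL49, one, two or three CDR residues were substituted; doubles and triples were drawn at random. In AlphaSeq, yeast of one mating type display the scFv and yeast of the other type display the target. The frequency of each diploid, read from paired DNA barcodes, reflects how well the two displayed proteins bind. Scores were corrected for input abundance and mapped to Kd with protein pairs of known affinity run in the same pool. There are three technical replicates.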

The parent's heavy chain CDRs are GFTLNSYGIS, VIYSDGRRTFYGDSVK, GRAAGTFDS; each variant's own CDRs replace them letter for letter. The Kd shown is the geometric mean over detected replicates; a lower Kd is a better binder. "nd" marks a missing value. The strain was present, yet no cells mated with the target were sequenced in any replicate, which points to weak or no binding. Three control strains display no target. For library AAYL49, 15% of the pairings with them gave a signal, with a median of 11 µM and one signal in twenty below 680 nM, so weak values seen in few replicates may be background. Parent in this assay: reference entry 4.4 nM, copy in this library 13 µM (one replicate of three).

Variant GFTLNSYGIS / VIYGDGRRTRYGDSVK / GRAAVTFDS showed nd (0 of 3 replicates).
Variant GFTLNSYGIS / VIYSDGRRTFYGYSVK / GRASGAFDS showed 11 µM (2 of 3 replicates).
Variant GFTLNSYGIS / VIYSDGRRTFYGDDVK / GRAADIFDS showed 73 nM (3 of 3 replicates).
Variant GFTLNSYGIS / VFYSDGRRTFEGDSVK / GRAAGTFRS showed 960 nM (2 of 3 replicates).
Variant GFTKNIYGIS / VIYSDGRRTFYGDSVK / GRAAGTFWS showed nd (0 of 3 replicates).
Variant GFTPNSYGIS / VIYSDGRRTFYGDSVK / GRAAGTFPS showed nd (0 of 3 replicates).
Variant GFTLNSYGIS / VCCSDGRRSFYGDSVK / GRAAGTFDS showed nd (0 of 3 replicates).
Variant GFTLNSYQIS / VIYSDGRRTFYGDSTK / GRAAGWFDS showed nd (0 of 3 replicates).
Variant GFTLNSYGIS / VFMSDGRRTFYGDSVK / GRAAGTFDS showed 47 µM (2 of 3 replicates).
Variant GFTLNSYGRS / VIYSDGRRTFYGDSVK / GRAAGTTDN showed nd (0 of 3 replicates).
Variant GFTLNSYGIS / VIYSDWRRTFYLDSVK / GRAAGTFDS showed nd (0 of 3 replicates).
Variant GFTLMSYGIS / VIYSDGRQPFYGDSVK / GRAAGTFDS showed 1.1 µM (1 of 3 replicates).
Variant GFTLNSYPIS / VIYSDGRRTFFGDSVK / GRAAGTFDS showed nd (0 of 3 replicates).
Variant GFTLNSYGIS / VIYSDSRRNFYGDSVK / GRAAGIFDS showed 100 µM (3 of 3 replicates).
Variant GFTLNSYGAS / VISSCGRRTFYGDSVK / GRAAGTFDS showed 42 µM (1 of 3 replicates).
Variant GFTNNSYGIS / VIYSDGRRTFYGDVVK / GRAAGTFDS showed 96 µM (1 of 3 replicates).
Variant GFTLNSYGIS / VIYSDGRRTFCGDSVR / GSAAGTFDS showed 150 nM (3 of 3 replicates).
Variant GFTLNSYGIS / VIYSDGRRTPYVDSVK / GRAAGHFDS showed 2.2 µM (2 of 3 replicates).
Variant GFTLNSYGIS / KIYSDGRRTFYGDSFK / GRARGTFDS showed nd (0 of 3 replicates).
Variant GFTLNSYAIS / VIYSDGRRTFPGDSVK / YRAAGTFDS showed 200 µM (1 of 3 replicates).
Variant EFTLNSYGIS / VIYSDGRRTFYGDSVK / GRAAGTPDY showed nd (0 of 3 replicates).
Variant HFTLNSYGIA / VIYSSGRRTFYGDSVK / GRAAGTFDS showed nd (0 of 3 replicates).
Variant GFTLNSYGIS / VIYSDGRRKFYGDSVK / GQLAGTFDS showed 1.6 nM (3 of 3 replicates).
Variant GFTHNSYGCS / VIYSDGRRTFYGDSVK / GRAAGLFDS showed nd (0 of 3 replicates).
Variant GFTNFSYGIS / VIYSDGRRTFYGDSVK / GRAAGTYDS showed 4.1 µM (1 of 3 replicates).
Variant GFTLNSYGIS / VIYSYQRRTFYGDSVQ / GRAAGTFDS showed 220 µM (1 of 3 replicates).
Variant GFTLNSYHIS / VIYWDGRRTFYGDFVK / GRAAGTFDS showed 1.2 mM (1 of 3 replicates).
Variant GFTLNSYGIS / VIYSCGTRTFYGDSPK / GRAAGTFDS showed nd (0 of 3 replicates).
Variant GFTLNSYGIS / VIGSDGRRTFYVDSVK / GRAAGTFDS showed nd (0 of 3 replicates).
Variant GFTLNDYIIS / VIYSDGRRTFYGDSVK / GRAAGMFDS showed nd (0 of 3 replicates).
Variant GFTLNSYGIS / VIYSDGRRTFYGDVVK / GRATRTFDS showed nd (0 of 3 replicates).
Variant GFTLNSYGIS / VIYSDGRRTFPGDSVV / GRAAGTFVS showed nd (0 of 3 replicates).
Variant GFTLNSYGIS / VIYSDGRRTFYQDSYK / GRAAGTFDT showed nd (0 of 3 replicates).
Variant GFTLNSYGIV / VIYSDGRRTFWGDDVK / GRAAGTFDS showed nd (0 of 3 replicates).
Variant GFTHNSYGIS / SIYSDGRRTFYGDSVK / GRAAGTEDS showed 140 µM (2 of 3 replicates).
Variant GFTLNSYGIS / VIYSVGRADFYGDSVK / GRAAGTFDS showed nd (0 of 3 replicates).
Variant GFTLNQYGIS / AIYSDGCRTFYGDSVK / GRAAGTFDS showed 4.1 µM (1 of 3 replicates).
Variant GPTLNSYGIS / VFYSDGRATFYGDSVK / GRAAGTFDS showed 4.9 µM (1 of 3 replicates).
Variant GFTLNSFGIS / VIYSDNRRTFYGDSVK / GRAAGTFDS showed nd (0 of 3 replicates).
Variant GFTLNSYGIS / VIYSDSRRTTYGDSVK / GLAAGTFDS showed nd (0 of 3 replicates).
Variant PFTLNSYGIS / VIGSDGRRTFYGDSVK / GRAACTFDS showed nd (0 of 3 replicates).
Variant GFTLNSYFIS / VIYSDGRRTFYGDSVK / RRAAGTFYS showed 14 µM (2 of 3 replicates).
Variant GFTTNSYGIS / VIYSDGRRTFYGRSVK / GNAAGTFDS showed 3.0 µM (2 of 3 replicates).
Variant GFTLNSYGID / VIYSDGWRTFYGDSDK / GRAAGTFDS showed 23 µM (1 of 3 replicates).
Variant KFTLNSYGIS / VIYSIGRRTFYGDSVK / GRAAGTFDS showed nd (0 of 3 replicates).
Variant GFTLNSYGIS / VIQSDGRREFMGDSVK / GRAAGTFDS showed nd (0 of 3 replicates).
Variant GFWLLYYGIS / VIYSDGRRTFYGDSVK / GRAAGTFDS showed 760 nM (2 of 3 replicates).
Variant GFTLNSYGIF / VIYSYGDRTFYGDSVK / GRAAGTFDS showed nd (0 of 3 replicates).
Variant LFRLNSYGIS / VIYSDGRRTFYGDSVK / GRAAGFFDS showed nd (0 of 3 replicates).
Variant GFTLNSYGIS / VIYSDGRRTFYNDFVK / GWAAGTFDS showed 4.4 nM (3 of 3 replicates).

For reference, 6 entries of the list once more:

| CDR-H1 | CDR-H2 | CDR-H3 | apparent Kd | replicates with signal |
|---|---|---|---|---|
| GFTLNSYGIS | VIYSDGRRTFYNDFVK | GWAAGTFDS | 4.4 nM | 3 of 3 |
| EFTLNSYGIS | VIYSDGRRTFYGDSVK | GRAAGTPDY | nd | 0 of 3 |
| PFTLNSYGIS | VIGSDGRRTFYGDSVK | GRAACTFDS | nd | 0 of 3 |
| GFTHNSYGIS | SIYSDGRRTFYGDSVK | GRAAGTEDS | 140 µM | 2 of 3 |
| LFRLNSYGIS | VIYSDGRRTFYGDSVK | GRAAGFFDS | nd | 0 of 3 |
| GFTTNSYGIS | VIYSDGRRTFYGRSVK | GNAAGTFDS | 3.0 µM | 2 of 3 |